Assay: Solubility test in methyl ethyl ketone
Type: physicochemical
Details: 1.5 g sensitiser in 100 g methyl ethyl ketone, stirred at room temperature (20° C.) for a maximum of 24 hours
Experimental: Solubility Test in Methyl Ethyl Ketone
1.5 g of the sensitiser is dissolved in 100g of methyl ethyl ketone and allowed to stir at room temperature (20° C.) for a maximum of 24 hours. If the sensitiser is completely dissolved in the methyl ethyl ketone, the sensitiser passes the solubility test and is considered as a preferred sensitiser according to the present invention.

1,4-distyryl-(3,5-trimethoxy, 4-(2-pentyl)oxy)benzene [(E)]
Solubility test MEK (15 g/kg): OK (If the sensitiser is completely dissolved in the methyl ethyl ketone, the sensitiser passes the solubility test)

Reference: patent US7527916B2, “Photopolymerizable composition” (Agfa Graphics, N.V., priority 2003, dated 2009)
